ChEMBL document CHEMBL1158488, “Investigation of the relative cellular permeability of DNA-binding pyrrole-imidazole polyamides” (J Med Chem, 2009)

Assays:
[1] = molecular target: T1, Glucocorticoid receptor (Homo sapiens, UniProt P04150)
T1 sequence (P04150 whole entry): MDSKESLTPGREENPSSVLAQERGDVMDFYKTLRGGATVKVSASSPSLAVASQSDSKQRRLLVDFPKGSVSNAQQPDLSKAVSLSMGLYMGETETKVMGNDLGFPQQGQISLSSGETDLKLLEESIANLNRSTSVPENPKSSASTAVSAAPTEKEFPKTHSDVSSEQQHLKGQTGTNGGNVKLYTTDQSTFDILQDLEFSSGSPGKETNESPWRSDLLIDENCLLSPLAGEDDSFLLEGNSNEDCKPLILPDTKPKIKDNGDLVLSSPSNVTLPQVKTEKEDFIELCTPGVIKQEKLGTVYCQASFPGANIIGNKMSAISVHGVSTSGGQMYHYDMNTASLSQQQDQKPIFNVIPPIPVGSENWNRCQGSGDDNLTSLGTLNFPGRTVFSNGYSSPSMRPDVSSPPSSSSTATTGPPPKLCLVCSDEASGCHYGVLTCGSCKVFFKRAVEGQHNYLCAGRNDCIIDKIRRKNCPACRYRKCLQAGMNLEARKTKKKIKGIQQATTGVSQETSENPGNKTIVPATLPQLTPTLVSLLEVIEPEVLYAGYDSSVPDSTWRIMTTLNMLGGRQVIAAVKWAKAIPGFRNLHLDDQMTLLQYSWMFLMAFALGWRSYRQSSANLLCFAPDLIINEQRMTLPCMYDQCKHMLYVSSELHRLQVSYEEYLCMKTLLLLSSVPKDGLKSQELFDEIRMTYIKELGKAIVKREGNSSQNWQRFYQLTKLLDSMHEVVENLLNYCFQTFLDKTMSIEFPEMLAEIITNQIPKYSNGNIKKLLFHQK

[2] = tested on: HeLa; assay: Cell permeability in human HeLa cells assessed as glucocorticoid receptor-dependent induction of luciferase activity after 40 hrs by GAL4-responsive luciferase reporter gene assay

Row | SMILES | IC50 [1] [nM] | EC50 [2] [nM]
1 | CC(=O)NCCCN(C)CCCNC(=S)NCCSCC(=O)[C@@]1(O)[C@H](C)C[C@H]2[C@@H]3CCC4=CC(=O)C=C[C@]4(C)[C@@]3(F)[C@@H](O)C[C@@]21C | 8.3 | 800
2 | C[C@@H]1C[C@H]2[C@@H]3CCC4=CC(=O)C=C[C@]4(C)[C@@]3(F)[C@@H](O)C[C@]2(C)[C@@]1(O)C(=O)CSCCNC(=S)NCCCN(C)CCCNC(=O)CCNC(=O)c1cc(NC(=O)c2cc(NC(=O)c3cc(NC(=O)c4cc(NC(=O)CCCNC(=O)c5cc(NC(=O)c6cc(NC(=O)c7cc(NC(=O)c8nccn8C)cn7C)cn6C)cn5C)cn4C)cn3C)cn2C)cn1C | 14 | 
